Data: patent US20250288572A1, “COMPOSITIONS AND METHODS FOR TREATING PULMONARY VASCULAR DISEASE” (UNIVERSITY OF PITTSBURGH-OF THE COMMONWEALTH SYSTEM OF …, priority 2022, published 2025)

Assays:
[1] = tested on: SU5416-hypoxic pulmonary arterial hypertension rats; conditions: rat, in vivo
[2] = tested on: hypoxia-induced pulmonary hypertension mice; test: Hypoxia-induced (Group 3) pulmonary hypertension mouse model; conditions: hypoxic mice; I-BET762 30 mg/kg daily oral
[3] = tested on: monocrotaline-exposed pulmonary arterial hypertension rats; test: Monocrotaline (MCT) pulmonary arterial hypertension rat model, dosing Days 12-26
[4] = tested on: SU5416-hypoxic pulmonary arterial hypertension rats; test: SU5416-hypoxia pulmonary arterial hypertension rat model, disease-reversal dosing
[5] = I-BET762 30 mg/kg daily i.p. or BRD2889 5 mg/kg i.p. every 5 days, Days 12-26

For CCNC(=O)C[C@@H]1N=C(c2ccc(Cl)cc2)c2cc(OC)ccc2-n2c(C)nnc21 [I-BET762], the “left ventricular function (LVPW thickness, LVEF, LVFS; echocardiography)” value [1] was “no alteration”, the Fulton index [2] was “without significant effect; also recorded: With the exception of Fulton Index” and the “LGALS8 in pulmonary arterioles (immunofluorescence)” value ([3]; I-BET762 30 mg/kg daily i.p. Days 12-26) was “decreased pulmonary vascular LGALS5”. The “Fulton index (RV/LV+S)” value [3, 5] was “reduced”, the “arteriolar muscularization (α-SMA)” value [3, 5] was “reduced” and the “cleaved caspase-3 (CC-3), endothelial apoptosis” value [3, 5] was “reduced downstream apoptosis; also recorded: decreased”. The “right ventricular systolic pressure (RVSP)” value [3, 5] was “reduced”, the “Fulton index (RV/LV+S)” value ([4]; I-BET762 30 mg/kg daily i.p. or BRD2889 5 mg/kg i.p. every 5 days, final 2 weeks) was “reduced” and the “aortic blood pressure (mean arterial pressure, MAP)” value ([4]; vs vehicle control) was “no alteration”. For the same compound, the heart rate ([4]; vs vehicle control) was “no alteration” and the “left ventricular function (LVPW thickness, LVEF, LVFS; echocardiography)” value ([4]; vs vehicle control) was “did not exhibit altered left ventricular function”.

Entries after “also recorded” stand apart in the source; their conditions may differ. Read-outs that look alike come from different tables or passages of the source.
